Sampled rows, rich in hits. Any-hit rate of the full collection: about 2.1%.
Rev-erbA mod: modulators of human Rev-erb alpha DNA binding | P20393 | 370,000 tested, 0.79% active | Rev-erbα–FITC-DNA binding, fluorescence polarization, 90 min | AID 1259318 | activity, % at 10 µM;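 active means activity above about 14%, limit read from the data; passing the limit was not always enough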;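 further: 0% = DMSO wells with 35 nM protein and 100% = DMSO wells with 750 nM protein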
GSIS activator: primary screen for activators of insulin secretion dependent on glucose, INS-1E cells, GLuc reporter luminescence; INS-1E GLuc reporter insulin secretion, 2-3 h; activation, % at 16.6 µM; 370,000 tested, 0.61% active; AID 743287;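 active means lowest replicate activation of at least 40%, so every replicate reaches that level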;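 further: 0% = median of neutral control wells and 100% = median of IBMX positive control wells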
ERp5 inh: blocks human ERp5 reductase activity on insulin; ERp5 insulin aggregation, absorbance 650 nm, 90 min; 350,000 tested, 0.05% active; inhibition, % at 9.99 µM; AID 651711;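 active means mean replicate inhibition above about 25%, with every replicate also reaching it, limit read from the data, passing the limit was not always enough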
PDI inh: PDI (human) enzyme inhibition; inhibition, % at 10 µM; P07237; AID 588391; PDI insulin aggregation turbidity, A650, 90 min; 350,000 tested, 0.052% active;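 active means mean inhibition across replicates of 30% or more, whatever share of single replicates reach that level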
SMARCA2 act: SMARCA2 function activation, primary screen | MG213 cells, MMTV-luciferase reporter, dexamethasone, overnight | 370,000 tested, 1% active | activation, % at 9.1 µM; in the data active means activation above about 7.8%;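 further: 0% = vehicle wells and 100% = reference activator wells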
Yeast UUG start: modulators of start codon recognition fidelity in yeast | S. cerevisiae UUG-firefly luciferase reporter, luminescence/redox ratio | activity score, % at 18.7 µM | 350,000 tested, 0.13% active;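 active = replicate mean at a twofold rise or more, about +100% in these data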;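 also: firefly luciferase made from a UUG start codon reports start codon fidelity; reporter light over untreated wells divided by growth signal over untreated wells; some hits fall short of that in this replicate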
Rev-erbA confirm: Rev-erb alpha (human) modulation, hit confirmation. shares compounds with Rev-erbA mod. Rev-erb alpha FITC-DNA binding, fluorescence polarization, 90 min. activation, % at 25 µM. 3,000 tested, 61% active. AID 1259319;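 active means activation at or above a set limit, or at least 3 SD above the negative control mean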;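 further: 0% = 35 nM protein with DMSO and 100% = 750 nM protein high control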
RORg counter: counter-screen for Rev-erb alpha modulators: RORgamma DNA binding; shares compounds with Rev-erbA mod; purified RORgamma protein-FITC-DNA binding, fluorescence polarization; IC50, µM; 910 tested, 8% active;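 active means Compounds whose fitted half-maximal concentration for disrupting protein-DNA binding is below 10 micromolar; the record names Rev-erb in its text, so the target is in doubt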
Starred values were filed as active, the others as inactive; x = no result.

Start of the data: the first five entries, ahead of the listing:
SMILES | Rev-erbA mod | GSIS activator | ERp5 inh | PDI inh | SMARCA2 act | Yeast UUG start | Rev-erbA confirm | others
COc1cc(OC)cc(-c2c(-c3cccs3)c3cc(-c4ccc(N(C)C)nc4)ccc3n2C)c1 | 24* | 27 | 1 | 9 | 0 | -17 | 1
Cc1cccc(N2C(=O)CC(Sc3nc(-c4ccccc4)c4cc(Cl)ccc4n3)C2=O)c1 (stereo not drawn) | 20* | x | x | -5 | 0 | -9 | -14
C[C@@H](NC(=O)C[C@@H]1C[C@H]2c3cc(NC(=O)CC4CC4)ccc3O[C@H]2[C@H](CO)O1)c1ccccc1 | x | -2 | x | x | x | x | x
COc1cc(/C=C(\C#N)C(=O)Nc2cc(C(F)(F)F)ccc2Cl)ccc1OCC(=O)Nc1cccc(C(F)(F)F)c1 | 34* | 3 | 3 | -6 | 2 | -21 | 19*
C[C@@H]1CN([C@H](C)CO)C(=O)c2cc(C#CCN(C)C)cnc2O[C@H]1CN(C)C(=O)CCN1CCCCC1 | x | 4 | 4 | x | x | 0 | x

The whole of this part, repeating the preview:
SMILES | Rev-erbA mod | GSIS activator | ERp5 inh | PDI inh | SMARCA2 act | Yeast UUG start | Rev-erbA confirm | others
COc1cc(OC)cc(-c2c(-c3cccs3)c3cc(-c4ccc(N(C)C)nc4)ccc3n2C)c1 | 24* | 27 | 1 | 9 | 0 | -17 | 1
Cc1cccc(N2C(=O)CC(Sc3nc(-c4ccccc4)c4cc(Cl)ccc4n3)C2=O)c1 (stereo not drawn) | 20* | x | x | -5 | 0 | -9 | -14
C[C@@H](NC(=O)C[C@@H]1C[C@H]2c3cc(NC(=O)CC4CC4)ccc3O[C@H]2[C@H](CO)O1)c1ccccc1 | x | -2 | x | x | x | x | x
COc1cc(/C=C(\C#N)C(=O)Nc2cc(C(F)(F)F)ccc2Cl)ccc1OCC(=O)Nc1cccc(C(F)(F)F)c1 | 34* | 3 | 3 | -6 | 2 | -21 | 19*
C[C@@H]1CN([C@H](C)CO)C(=O)c2cc(C#CCN(C)C)cnc2O[C@H]1CN(C)C(=O)CCN1CCCCC1 | x | 4 | 4 | x | x | 0 | x
COc1cc(C(C)=O)ccc1Oc1ncnc2c1cnn2-c1ccc(F)cc1 | 25* | -3 | x | -2 | 1 | -11 | 14
COc1cc(C(C)=O)ccc1Oc1ncnc2c1cnn2-c1cccc(Cl)c1 | 6 | x | 2 | -10 | -1 | -16 | x
CC(C)CC[n+]1ccccc1/C=C/c1ccc(N(C)C)cc1 | 32* | -39 | -2 | -1 | -10 | 2 | 30* | RORg counter=>40
CCC[C@H]1[C@@H](NCc2cccs2)CC[C@@]23CCCN2C(=O)CCC[C@@H]13 | 21* | x | x | x | x | x | 11*
O=C(NN1CCOCC1)c1cc(-c2ccc(Br)s2)nc2ccccc12 | 32* | 35 | 0 | -5 | -2 | x | 7
COc1ccc(NC(=O)N(C)C[C@H]2Oc3c(NS(=O)(=O)c4ccc(C)cc4)cccc3C(=O)N([C@H](C)CO)C[C@H]2C)cc1 | x | 18 | 0 | x | x | 1 | x
O=S(=O)(Cc1cc(Sc2ccc(Cl)cc2)nc(-c2ccccc2)n1)c1ccccc1 | 7 | -15 | x | -10 | -2 | x | x
CCOC(=O)C(C)Sc1cc(CS(=O)(=O)c2ccccc2)nc(-c2ccccc2)n1 (stereo not drawn) | 29* | x | x | 1 | -2 | -4 | 36* | RORg counter=>40
COc1ccc(-c2cnc3c(c2)C(=O)N([C@H](C)CO)C[C@H](C)[C@H](CN(C)S(=O)(=O)c2ccc(F)cc2)O3)cc1 | x | -28 | -5 | x | x | 12 | x
O=C(COc1ncnc2ccccc12)NCCC1=CCCCC1 | -3 | x | x | -2 | -1 | -17 | x
O=C(COc1ncnc2c(Cl)cc(Cl)cc12)NCCC1=CCCCC1 | 22* | -7 | 5 | -3 | 0 | -11 | 16
O=C(NCC[C@@H]1CC[C@@H](NC(=O)C2CC2)[C@@H](CO)O1)Nc1ccc(C(F)(F)F)cc1 | x | 15 | 1 | x | x | -2 | x
COc1cc(SC)ccc1C(=O)Nc1ccc(S(=O)(=O)N2CCCC2)cc1 | 57* | x | x | -12 | 1 | -14 | 30*
COc1cc(NC(=O)c2cc(S(=O)(=O)N3CCCCC3)ccc2N2CCOCC2)cc(OC)c1 | 22* | -5 | 2 | -6 | -1 | 1 | -6
COc1ccc(NC(=O)c2cc(S(=O)(=O)N3CCCC3)ccc2OC)cc1 | -4 | -5 | 1 | -8 | -4 | 11 | x
CC(=O)c1ccccc1NC(=O)c1cc(S(=O)(=O)N2CCOCC2)ccc1N1CCCC1 | 144* | 12 | -1 | 6 | -1 | 1 | 145* | RORg counter=>40
CC(C)NC(=O)N(C)C[C@H]1Oc2ncc(C#CC3CC3)cc2C(=O)N([C@@H](C)CO)C[C@H]1C | x | -4 | 0 | x | x | x | x
C[C@@H]1CN([C@H](C)CO)C(=O)c2cc(C#C[C@@H](C)O)cnc2O[C@H]1CN(C)C(=O)CC1CC1 | x | 10 | -1 | x | x | 2 | x
Cn1c(C(=O)NC2CCCCCC2)cc2c(=O)n(C)c3ccccc3c21 | 48* | -6 | -3 | x | 4 | 2 | 26*
Cc1ccc(CNC(=O)c2cc3c(=O)n(C)c4ccccc4c3n2C)cc1 | 63* | 3 | -1 | x | -2 | -8 | 43* | RORg counter=>40
Cn1c(C(=O)NC2CCCCC2)cc2c(=O)n(C)c3ccccc3c21 | 5 | x | -10 | x | 1 | -11 | x
Cn1c(C(=O)NCCN2CCOCC2)cc2c(=O)n(C)c3ccccc3c21 | 2 | -5 | -3 | x | -3 | -23 | x
Cn1c(C(=O)NCc2cccs2)cc2c(=O)n(C)c3ccccc3c21 | 33* | 1 | 13 | x | -1 | -11 | 18*
CCOc1ccccc1-c1nc(-c2ccc(NC(=O)Cc3ccc(OC)cc3)cc2)no1 | 43* | x | x | 1 | 1 | -3 | 70* | RORg counter=>40
CCCN1[C@@H]2Cn3c(cccc3=O)[C@H]1[C@@H](C(=O)Nc1ccccc1)[C@@H]2CO | x | 12 | -1 | x | x | x | x
O=C(c1ccccc1)N1N=C(c2ccccc2)CC1c1ccccc1 (stereo not drawn) | 3 | 6 | 0 | 0 | 2 | -6 | x
Cc1ccc(C(=O)N2N=C(c3ccccc3O)CC2c2ccccc2)cc1 (stereo not drawn) | 38* | -3 | -12 | -4 | -2 | -15 | 25*
CC(C)(C)OC(=O)[C@H](Cc1ccccc1)NC(=O)c1nc[nH]c1C(=O)N[C@@H](Cc1ccccc1)C(=O)OC(C)(C)C | -5 | x | 7 | 7 | 0 | -7 | x
CC(C)(C)OC(=O)[C@H](Cc1ccccc1)NC(=O)c1ncn2c1c(=O)[nH]c1ccc(Br)cc12 | 168* | 16 | 4 | -7 | 4 | -13 | -3
Cc1nn(-c2ccc(F)cc2)c2c1cc(C#N)c1nc3ccccc3n12 | 60* | x | x | -18 | -6 | -5 | 39*
CCOC(=O)N1CCN(c2nc(-c3ccco3)cc(C(F)(F)F)n2)CC1 | 10 | x | x | -2 | -1 | -8 | x
CCOC(=O)N1CCN(c2nc(-c3cccs3)cc(C(F)(F)F)n2)CC1 | 22* | x | x | -6 | 0 | -20 | 9
C[C@H](CO)N1C[C@H](C)[C@H](CN(C)Cc2ccc(-c3ccccc3)cc2)Oc2ccc(NC(=O)CCN3CCOCC3)cc2C1=O | x | 27 | 0 | x | x | x | x
CCOC(=O)c1sc2nc(C)nc(NCCc3ccc(S(N)(=O)=O)cc3)c2c1C | 40* | 24 | 5 | -64 | 0 | 5 | 16
Cc1nc(NCCc2ccc(S(N)(=O)=O)cc2)c2c(C)c(C)sc2n1 | 0 | x | x | 5 | -3 | -4 | x
Brc1ccc2ncc(Br)cc2c1 | 45* | 3 | x | 1 | 3 | -8 | 33* | RORg counter=>40
Nc1nnc2cc(Br)ccc2n1 | 5 | 30 | -13 | -2 | 2 | -6 | x

Assay outcomes (PubChem BioAssay)
